The record followed here is paper PMC10926851 (Journal of medicinal chemistry, 2021).

In the assay the test system is CCRF-CEM cells. The assay is described as follows: Cell cycle analysis. Particulars: 72 h, CC50. It counts as cell-based, human.

Each structure is given as a SMILES string.

Take `Cc1ccc(NC(=O)COc2ccc3cc(/C=C4/SC(=O)NC4=O)ccc3c2)cc1` [7c, 2-((6-((2,4-Dioxothiazolidin-5-ylidene)methyl)naphthalen-2-yl)-oxy)-N-(p-tolyl)acetamide]: the “effect on the cell cycle” value is reported as “did not have a significant effect on the cell cycle”. Take `O=C(COc1ccc2cc(/C=C3/SC(=O)NC3=O)ccc2c1)Nc1c(F)cc(F)cc1Br` [7i, N-(2-Bromo-4,6-difluorophenyl)-2-((6-((2,4-dioxothiazolidin-5-ylidene)methyl)naphthalen-2-yl)oxy)acetamide]: the “effect on the cell cycle” value is recorded as “G0/G1 arrest”.
